Values of other authors as cited in patent publication US20070292887A1, “Immunohistochemical Methods” (Bayer Pharmaceuticals Corporation, priority 2003, published 2007).

Tested on: keratinocytes (normal skin)
Conditions: before treatment and at approximately day 28 of treatment

## COc1cc2ncnc(Nc3ccc(F)c(Cl)c3)c2cc1OCCCN1CCOCC1 [ZD1839]
  EGFR signaling pathway in serial skin biopsies: inhibition
